Experimental data as given in patent US9308192B2, “Use of NRF2 inducers to treat epidermolysis bullosa simplex and related diseases” (priority 2007, dated 2016).

Legend:
[1] = system: basal keratinocytes of mouse epidermis; conditions: dissolved in organic solvent like acetonitrile or acetone; data not shown
[2] = sustained topical treatment, four weeks
[3] = topical 1 μmole SF in jojoba oil twice a week for four weeks
[4] = topical 1 μmole SF in jojoba oil, four weeks, relative to vehicle

Which “effect reaching basal layer of epidermis” value [1] does the source give for `C[S+]([O-])CCCCN=C=S` (stereo not drawn) [SF, 4-methylsulfinylbutyl isothiocyanate] here?
Its value is “does not reach the basal layer of epidermis”.

What about the “K17 in basal layer of epidermis” value (K14 null mice; back skin of P2 mice, immunohistochemistry) of the same compound?
Its value is “presence of K17 antigens in the basal layer”.

What about the “outcome beyond P4” value (K14 null mice; revised regimen, progressive wasting beyond P4) of the same compound?
The value was “most of them died within a day or two”.

What about the “maintenance of K16/K17 expression in the oral mucosa” value (K14 null mice; topical delivery during postnatal phase) of the same compound?
Its value is “not effective”.

What about the “effect on rate of apoptosis in skin” value (SKH-1 hairless mice; [2]) of the same compound?
Its value is “did not appear to affect skin morphology or alter the rate of apoptosis”.

And the “effect on skin morphology” value (SKH-1 hairless mice; [2])?
The value was “did not appear to affect”.

What about the “K14 immunoreactivity in skin” value (SKH-1 hairless mice; [3]) of the same compound?
Its value is “no change”.

And the “K16 immunoreactivity in skin” value (SKH-1 hairless mice; [3])?
Its value is “increased”.

And the “K17 immunoreactivity in skin” value (SKH-1 hairless mice; topical 1 μmole SF in jojoba oil twice a week for four weeks, vs vehicle-treated skin, extended to basal layer)?
Its value is “markedly increased”.

What about the “K14 level in total protein extracts of dorsal skin” value (SKH-1 hairless mice; [4]) of the same compound?
The value was “unaltered”.

And the “K16 level in total protein extracts of dorsal skin” value (SKH-1 hairless mice; [4])?
Its value is “increased levels”.

What about the “K17 level in total protein extracts of dorsal skin” value (SKH-1 hairless mice; [4]) of the same compound?
The value was “increased levels”.
